## Apparent affinities of Ab-14 variants for a coronavirus HR2 peptide

The target is the same throughout: PDVDLGDISGINAS, from the HR2 region of SARS-CoV-2 spike.

The variants keep the heavy chain, the linker and the frameworks of Ab-14 (scFv order VH, a (GGGGS)3 linker, VL).
VH: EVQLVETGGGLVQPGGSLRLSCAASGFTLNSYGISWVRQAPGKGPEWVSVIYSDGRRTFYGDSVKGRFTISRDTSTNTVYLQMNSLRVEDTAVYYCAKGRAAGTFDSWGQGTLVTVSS
VL: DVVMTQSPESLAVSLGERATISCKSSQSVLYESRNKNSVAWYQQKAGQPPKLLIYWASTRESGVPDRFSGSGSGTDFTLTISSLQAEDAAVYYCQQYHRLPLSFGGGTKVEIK

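The starting antibody came from a phage panning campaign against this peptide. Variants in AAYL50 differ from the parent at up to three CDR positions; double and triple changes were sampled at random. The assay is AlphaSeq: two haploid yeast populations carry antibody and antigen on their surface. Pairs that bind mate more often; barcode pairs of the diploids are counted by sequencing. A regression on co-assayed BCL2-family reference pairs converts the normalised counts of each replicate to an apparent Kd. The assay was run in three technical replicates.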

Variants are written as CDR1, CDR2 and CDR3 of the light chain (limits as in the source). Parent: KSSQSVLYESRNKNSVA, WASTRES, QQYHRLPLS. This list gathers variants with a substitution at P101 (VL, numbered from residue 1). Each Kd is an estimate from the mating assay, the geometric mean of the replicates in which the pair was seen; lower is stronger. An entry "nd" has no value in the source: the pair was not observed among the diploids in any replicate. This suggests poor binding but is not conclusive.

- KSSQSVLYESRNKNEVA / WASTRES / QQYHRVNLS: nd (0 of 3 replicates)
- KSSQSHLYESRNKNSVA / WASTRES / QQYHRLTRS: 16 µM (1 of 3 replicates)
- KSSQSVLYESRNKNSVH / WASTRES / QQYHRLALS: 1.3 mM (1 of 3 replicates)
- KSSQSVLYESRNKNSNA / WTSTRES / QQYHRLKLS: 31 µM (1 of 3 replicates)
- KSSQSVLVTSRNKNSVA / WASTRES / QQYHRLRLS: nd (0 of 3 replicates)
- KSSQSVLYESRNKNSVA / WASTREV / QQYHRVVLS: nd (0 of 3 replicates)
- KSSHSVLYESRNKNSMA / WASTRES / QQYHRLCLS: 17 nM (3 of 3 replicates)
- KSKQSVLFESRNKNSVA / WASTRES / QQYHRLDLS: 3.9 µM (3 of 3 replicates)
- KSSQSVLIESRNKNSVA / WASTRES / QQYHALDLS: 4.7 nM (3 of 3 replicates)
- KSSQSVLYESRNKNSVA / WASTRES / QQYHRLFLS: 6.4 µM (1 of 3 replicates)
- KSSQSVLYESRNKNSVA / WASTRES / QQYHRLSLS: 38 nM (3 of 3 replicates)
- KSSQSVLYESRNKNSVA / WASTRES / QFYHRLNCS: 28 µM (2 of 3 replicates)
- KSSQMVLYENRNKNSVA / WASTRES / QQYHRLNLS: nd (0 of 3 replicates)
- HSSQSVLYESRNKNFVA / WASTRES / QQYHRLNLS: 69 nM (3 of 3 replicates)
- KSSQSVLYESRNKNSNA / WASTRES / QQYHMLSLS: 120 µM (1 of 3 replicates)
- KSSQSVDYESRNKNSVA / WASTRES / QQYHGLQLS: nd (0 of 3 replicates)
- KASQSVLYESRDKNSVA / WASTRES / QQYHRLILS: 8.3 nM (3 of 3 replicates)
- KSSQSVLKESRNKNSVA / WASCRES / QQYHRLILS: 2.7 µM (3 of 3 replicates)
- KSSQSQLYESRNKWSVA / WASTRES / QQYHRLQLS: 380 nM (2 of 3 replicates)
- KSSQSVLYESRNDNSVA / GASTRES / QQYHRLMLS: 12 µM (1 of 3 replicates)
- KSSQSVLYESRNKNSVA / WSSTRES / QQYHQLVLS: nd (0 of 3 replicates)
- KSSQSVLYESRNKNSVA / WASTRES / QQYHRESLH: nd (0 of 3 replicates)
- KSSQSVNYESRLKNSVA / WASTRES / QQYHRLALS: 11 nM (3 of 3 replicates)
- KSNQSVLGESRNKNSVA / WASTRES / QQYHRLKLS: nd (0 of 3 replicates)
- KRSQSVLYESRNKNSVA / WAETRES / QQYHRLTLS: 940 nM (3 of 3 replicates)
- KSSQSVLYESRNKNSVA / WASTRSS / QQYHRLLLS: nd (0 of 3 replicates)
- KSSQSVLYESRNKNSVA / WASTRQS / QQYHRFHLS: 710 nM (3 of 3 replicates)
- KSSQQVLYESRNKNSVA / MASTRES / QQYHRLMLS: 11 nM (3 of 3 replicates)
- KSSQSVLTESRNKNSVA / WASTRES / QQYHRLVLS: 14 µM (1 of 3 replicates)
- KSSQSVLYESRNHNSVA / WASTRES / QQYHRLNLC: nd (0 of 3 replicates)
- ASSQSVLYESRNKNSVA / WASARES / QQYHRLYLS: nd (0 of 3 replicates)
- KQSFSVLYESRNKNSVA / WASTRES / QQYHRLMLS: 23 nM (3 of 3 replicates)
- KSSQSVLYESRCKHSVA / WASTRES / QQYHRLELS: 38 nM (3 of 3 replicates)
- KSSQSVLLESVNKNSVA / WASTRES / QQYHRLDLS: 18 µM (2 of 3 replicates)
- KWSQSVLYESRNKNSVA / WASTRES / QMYHRLALS: 34 nM (3 of 3 replicates)
- KSSQSVLYESRNKNSVN / WACTRES / QQYHRLQLS: nd (0 of 3 replicates)

The last 3 entries again:

* KSSQSVLLESVNKNSVA / WASTRES / QQYHRLDLS = 18 µM (2 of 3 replicates)
* KWSQSVLYESRNKNSVA / WASTRES / QMYHRLALS = 34 nM (3 of 3 replicates)
* KSSQSVLYESRNKNSVN / WACTRES / QQYHRLQLS = nd (0 of 3 replicates)

Parent in this assay: reference entry 4.4 nM, copy in this library 48 nM. Background: pairings of library AAYL50 with three empty control strains gave a value in 18% of cases (median 15 µM, 5th percentile 970 nM). Values in that range, when seen in few replicates, are hard to tell from nonspecific mating.

From the AlphaSeq antibody data of Engelhart et al. 2022 (doi:10.1038/s41597-022-01779-4), copy in the FLAb collection.